Experimental data from ChEMBL document CHEMBL5104202, “Structure-Uptake Relationship Studies of Oxazolidinones in Gram-Negative ESKAPE Pathogens” (J Med Chem, 2022).

How the values were obtained:
Type in all cases: functional
Pseudomonas aeruginosa [1] = assay: Selectivity ratio of IC50 for OM pore producing Pseudomonas aeruginosa to IC50 for efflux pump lacking/OM pore producing Pseudomonas aeruginosa
Outline: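 Efflux impact ratio (P/PE) is the M9-MOPS growth IC50 in the pore-producing strain divided by that in the efflux-lacking/pore-producing strain. Any IC50 >100 for the efflux-lacking or pore strain was set to 100 before computing.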

Pseudomonas aeruginosa [2] = assay: Selectivity ratio of IC50 for efflux pump lacking Pseudomonas aeruginosa to IC50 for efflux pump lacking/OM pore producing Pseudomonas aeruginosa
Outline: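 OM impact ratio (E/PE) is the M9-MOPS growth IC50 in the efflux-lacking strain divided by that in the efflux-lacking/pore-producing strain. Any IC50 >100 for the efflux-lacking or pore strain was set to 100 before computing.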

Staphylococcus aureus = assay: Antibacterial activity against Staphylococcus aureus ATCC 25923 incubated for 24 hrs by twofold serial dilution method
Outline: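 MICs by twofold serial dilution in 96-well plates from 10 mM DMSO stocks. Cultures grown in the indicated media; for E. coli, A. baumannii and P. aeruginosa, inducers were 0.1% arabinose, 1% arabinose and 0.1 mM IPTG respectively.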

| Compound | Ratio IC50 (Pseudomonas aeruginosa [1]) | Ratio IC50 (Pseudomonas aeruginosa [2]) | MIC (Staphylococcus aureus) [µM] |
| --- | --- | --- | --- |
| O=C1O[C@@H](CO)CN1c1ccc(-c2ccc(F)cc2)c(F)c1 | 40 | – | – |
| C[n+]1ccccc1-c1ccc(-c2ccc(N3C[C@H](CO)OC3=O)cc2F)cc1 | 13 | 7 | – |
| C[n+]1ccc(-c2ccc(N3C[C@H](CO)OC3=O)cc2F)cc1 | 6 | 5 | – |
| N/C(=N/O)c1ccc(-c2ccc(N3C[C@H](CO)OC3=O)cc2F)cc1 | 36 | – | – |
| O=C(O)c1ccc(-c2ccc(N3C[C@H](CO)OC3=O)cc2F)cc1 | > 11 | > 112 | – |
| O=Cc1ccc(-c2ccc(N3C[C@H](CO)OC3=O)cc2F)cc1 | > 254 | 49 | – |
| O=C1O[C@@H](CO)CN1c1ccc(-c2ccncc2)c(F)c1 | 16 | – | – |
| O=C1O[C@@H](CO)CN1c1ccc(-c2ccc3ccncc3c2)c(F)c1 | > 1130 | > 1110 | – |
| O=C1O[C@@H](CO)CN1c1ccc(-c2ccc(SC(F)(F)F)cc2)c(F)c1 | > 14 | 11 | – |
| O=C1O[C@@H](CO)CN1c1ccc(-c2cc[n+](Cc3ccccc3)cc2)c(F)c1 | 38 | – | – |
| NCc1ccc(-c2ccc(N3C[C@H](CO)OC3=O)cc2F)cc1O | 259 | 14 | 12.5 (≈ 4.15 µg/mL) |
| O=C1O[C@@H](CO)CN1c1ccc(-c2ccc(CO)cc2)c(F)c1 | > 18 | – | – |
| CC(C)c1ccc(-c2ccc(N3C[C@H](CO)OC3=O)cc2F)c(C(C)C)c1 | 309 | – | – |
| O=C1O[C@@H](CO)CN1c1ccc(-c2ccccc2)c(F)c1 | 9 | – | – |
| O=C1O[C@@H](CO)CN1c1ccc(-c2cccc(CO)c2)c(F)c1 | > 8 | – | – |
| O=C1O[C@@H](CO)CN1c1ccc(-c2cccnc2)c(F)c1 | 12 | – | – |
| O=C1O[C@@H](CO)CN1c1ccc(-c2ccc(-c3ccncc3)cc2)c(F)c1 | > 104 | 92 | – |
| COc1ccc(-c2ccc(N3C[C@H](CO)OC3=O)cc2F)cc1 | > 82 | – | – |
| O=C1O[C@@H](CO)CN1c1ccc(-c2ccc3c(c2)OCO3)c(F)c1 | > 309 | 7 | – |
| O=C1O[C@@H](CO)CN1c1ccc(-c2ccc(OC(F)(F)F)cc2)c(F)c1 | – | 6 | – |
| Cc1ccc(-c2ccc(N3C[C@H](CO)OC3=O)cc2F)cc1 | > 26 | – | – |
| O=C1O[C@@H](CO)CN1c1ccc(C#Cc2cc(Cl)cc(Cl)c2)c(F)c1 | > 6 | – | – |
| O=C1O[C@@H](CO)CN1c1ccc(-c2ccc(C(F)(F)F)cc2)c(F)c1 | > 72 | 6 | – |

Converted amounts (≈) assume the structure as drawn.
